Experimental data: patent US9518085B2, “Compounds and pharmaceutical combinations for the treatment of neurodegenerative and ischemic brain diseases” (CENTRO DE INGENIERÍA GENÉTICA Y BIOTECHNOLOGÍA, priority 2011, dated 2016)

Key:
[1] = test system: brain I/R model in Mongolian gerbils; assay: Brain infarct volume in the bilateral ischemia-reperfusion (I/R) model, transient CCA occlusion; assay type: in vivo; settings: 24 h after 10 min CCA occlusion, PCB 750 μg/Kg ip, PCB-aa 3.375 mg/kg, alone or combined
Method: The animals were treated with saline solution or with an accumulative dose of the PCB-aa peptides (3.375 mg/kg of each one), by intraperitoneal route for 30 min, 3, 6 and 12 h after the ischemic event.
The effectiveness percentage of each treatment was calculated according to the following formula: effectiveness %=(1−Vi/VI/R)×100. Vi: infarct volume of the ischemic group treated with the corresponding product; VI/R: volume of the infarct of the ischemic group treated with saline solution.
The percentage of effectiveness was calculated as described in Example 3.
The evaluation of the therapeutic effect of the combinations and their independent components was carried out. The percentage of effectiveness of each treatment was calculated as described in Example 3.

EAE model = assay: EAE model, therapeutic schedule, clinical course (area under the curve); assay type: in vivo, C57BL6 mice; settings: PCB 750 μg/kg ip, PCB-aa 3.375 mg/kg ip daily 15 days, IFN-b 500 ng/Kg sc 6 doses, alone or combined
Method: The percentage of effectiveness of each treatment was calculated according to the following formula: % of effectiveness=(1−ACi/ACEAE)×100. ACi: area under the curve of the group treated with the corresponding product; ACEAE: area under the curve of the EAE group.
(§1) In the prophylactic schedule the treatment was performed 15 days before EAE induction and in the therapeutic schedule starting from the beginning of the clinical signs.

[2] = test system: experimental autoinmune encephalomyelitis (EAE) model; assay: EAE model, prophylactic schedule, clinical index; assay type: in vivo, C57BL6 mice; settings: Table 2; PCB-aa 3.375 mg/Kg, PCB 750 μg/Kg, IFN-b 500 ng/Kg, alone or combined
Method: as §1

| Molecule | effectiveness, reduction of brain infarct volume ([1]; IL-2 100 ng/Kg sc) | % of effectiveness (area under the curve of clinical index) (EAE model) | Clinical score (Mean ± SD) [2] | Days of the disease [2] | Incidence (%) [2] | Starting day (Mean ± DS) [2] | effectiveness, reduction of brain infarct volume ([1]; IFN-a/IFN-b 500 ng/Kg sc, 30 min, 3, 6, 12 h after ischemic event) |
| --- | --- | --- | --- | --- | --- | --- | --- |
| IL-2: Interleukin-2 | 25.8% |  |  |  |  |  |  |
| IFN-b: beta interferon, type I interferon (protein, UniProt P01574 22-187, looked up) Interferon beta: MSYNLLGFLQRSSNFQCQKLLWQLNGRLEYCLKDRMNFDIPEEIKQLQQFQKEDAALTIYEMLQNIFAIFRQDSSSTGWNETIVENLLANVYHQINHLKTVLEEKLEKEDFTRGKLMSSLHLKRYYGRILHYLKAKEYSHCAWTIVRVEILRNFYFINRLTGYLRN |  | 34.8% | 1.4 ± 0.2 | 7.1 ± 0.3 days | 70% | 12.6 ± 0.5 | 37.0% |
